Source: PubChem BioAssay (National Center for Advancing Translational Sciences (NCATS))
An excerpt weighted towards active compounds, which were near 16% of everything screened.
TDP1 cell noCPT = qHTS for Inhibitors of human tyrosyl-DNA phosphodiesterase 1 (TDP1): qHTS in cells in absence of CPT; AID 686978, 2013; DT40 Tdp1-/- hTDP1 cells, no CPT, ATP luminescence, 48 h; actives 15% (n = 420,000); Potency, µM (series often up to 46.2 µM), without a hit: top-dose activity change, negative = growth inhibition, actives largely listed as inhibitors; note: potency is the fitted concentration of half-maximal effect; % is set by controls: 0 for no effect and ±100 for the full control effect; nearly all actives have a fitted effect of over 55% in size
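Chicken DT40 Tdp1-/- cells complemented with human TDP1, screened without camptothecin (DMSO vehicle only), 400 cells/well. Compounds pin-transferred, cells incubated at 37 °C for at least 48 hr. Growth read as ATP-dependent luminescence (CellTiter-Glo, 30 min at RT).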
uPA surface inh = blocks generation of uPA at the cell surface | AID 540303 | Potency, µM (top dose mostly 38.3 µM), for the others: at the top dose activity change, negative = inhibition, actives largely listed as inhibitors | cell surface uPA generation assay, qHTS | actives 0.31% (n = 330,000); active = well fitted inhibition curve with a large enough effect; inconclusive = small, poorly fitted or top-dose-only effect; inactive = no such curve, though single readings can be large or run the other way; tested in mouse RAW 264.7 cells; note: potency is the fitted concentration of half-maximal effect; % is set by controls: 0 for no effect and ±100 for the full control effect; nearly all actives have a fitted effect of over 55% in size
DT40 TDP1 CPT = growth inhibition of DT40 Tdp1-/-;hTDP1 cells with camptothecin (screen for TDP1 inhibitors). chicken DT40 Tdp1-/-;hTDP1 cells + 20 nM CPT, ATP luminescence, 48 h. actives 12% (n = 420,000). Potency, µM (series often up to 46.2 µM), for the others: at the top dose activity change, negative = growth inhibition, hits mostly inhibitors; note: potency is the fitted concentration of half-maximal effect; % is set by controls: 0 for no effect and ±100 for the full control effect; nearly all actives have a fitted effect of over 55% in size
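Chicken DT40 Tdp1-/- cells stably complemented with human TDP1 were seeded at 400 cells/well in medium containing 20 nM camptothecin, exposed to pin-transferred compounds, and grown at 37 °C for at least 48 hr. Viability was read as ATP luminescence.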
miR-21 reporter = raises the signal of a miR-21 reporter. Potency, µM (highest dose often 38.3 µM), without a hit: top-dose reporter change, positive = more light. 340,000 tested, under 10 active. HeLa miR-21 FLuc reporter, luciferase, 48 h; active = well fitted rising curve with a large enough effect; inconclusive = small, poorly fitted or top-dose-only effect; inactive = no such curve, though single readings can be large or run the other way;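 further: % of control where 0% means no effect; miR-21 action dims this reporter so a rising signal means less miR-21 action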
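HeLa miR-21-FLuc reporter line, endogenous miR-21; 2000 cells/well in DMEM/10% FBS; compound titration up to ~40uM final, 48 h, 37 degree Celsius; luciferase detection reagent, 15 min lysis, CCD luminescence.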
TDP1 inh = inhibitors of human tyrosyl-DNA phosphodiesterase TDP1. Q9NUW8. recombinant TDP1, AlphaScreen DNA substrate cleavage. Potency, µM (top dose mostly 130 µM), inactives show at the highest dose activity change, negative = inhibition, usual class: inhibitors. actives 0.28% (n = 350,000). AID 485290; note: potency is the fitted concentration of half-maximal effect; % is set by controls: 0 for no effect and ±100 for the full control effect; nearly all actives have a fitted effect of over 40% in size
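Signal: AlphaScreen proximity between streptavidin donor and anti-FITC acceptor beads on intact substrate. Reaction: Tdp1 1 nM, substrate 15 nM final, 5 min RT after 15 min compound preincubation.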
* hit, by the source's call; ? = inconclusive; . = not tested or not shown. Unless noted, calls come from the whole dose curve; as a rule, active = well fitted curve in the direction sought with a large enough effect; inconclusive = small, poorly fitted or top-dose-only effect, or another doubt; inactive = no such curve, though single readings can be large; an effect the other way counts as inactive or inconclusive.

Abbreviations – A = TDP1 cell noCPT; B = uPA surface inh; C = DT40 TDP1 CPT; D = miR-21 reporter; E = TDP1 inh
N#CC(=C=[N-])/C=C(\C(=O)c1ccccc1)[n+]1ccccc1
  A: -19%	B: -6%	C: 9%	D: 3%	E: 0%
CCOC(=O)c1ccc(NC(=O)C(C)Sc2nc(=O)cc(N)n2CCc2ccccc2)cc1 (centres undefined)
  A: .	B: .	C: .	D: 7%	E: 3%
CCC12CCCN3CCC4(C(=C(C(=O)OC)C1)Nc1ccccc14)C32 (centres undefined)
  A: 16µM*	B: -5%	C: 16µM*	D: 3%	E: 8%
C/C(=N/NC(=O)c1ccc2c(c1)OCCO2)c1ccc([N+](=O)[O-])cc1
  A: -2%	B: 2%	C: -1%	D: -10%	E: 0%
Cc1cc(C)cc(NC(=O)N2CCC(CN3CCc4ccccc4C3)CC2)c1
  A: 13µM*	B: .	C: ?	D: -2%	E: 0%
COC(=O)C1N2C(=O)N(C)[C@H](C(=O)OC)[C@H]2SC1(C)C (some centres undefined)
  A: -3%	B: .	C: -9%	D: .	E: .
COC(=O)[C@@H]1[C@H]2SC(C)(C)[C@H](C(=O)OC)N2C(=O)N1Cc1cc2ccccc2n1S(=O)(=O)c1ccccc1
  A: 13µM*	B: .	C: ?	D: .	E: .
O=C(N/N=C/C(Br)=C/c1ccccc1)c1cccs1
  A: 18µM*	B: -11%	C: 16µM*	D: -49%	E: 6%
O=C(N/N=C/C(Cl)=C/c1ccccc1)c1ccccc1F
  A: ?	B: -7%	C: ?	D: -64%	E: 2%
O=C(N/N=C/C(Br)=C/c1ccccc1)c1ccccc1F
  A: 23µM*	B: -29%	C: 12µM*	D: -17%	E: 12%
Cn1cccc/c1=N\c1cccc[n+]1C
  A: 1µM*	B: ?	C: 1.5µM*	D: 8%	E: 6%
O=C(NNC(=O)C12CC3CC(CC(Br)(C3)C1)C2)c1ccccc1F
  A: 6%	B: 0%	C: -6%	D: .	E: -4%
CCOC(=O)CNC(=O)N1CCN(c2nnc(C)c3c(C)n(-c4ccc(Cl)cc4)nc23)CC1
  A: -13%	B: .	C: 11%	D: 0%	E: 12%
CCc1ccc(NC(=O)N2CCN(c3nnc(C)c4c(C)n(-c5ccc(Cl)cc5)nc34)CC2)cc1
  A: 23µM*	B: .	C: ?	D: -4%	E: .
CCc1ccc(NC(=O)C2CCCN(c3nnc(C)c4c(C)n(-c5ccccc5)nc34)C2)cc1 (centres undefined)
  A: 9.2µM*	B: .	C: ?	D: -1%	E: 8%
Cc1cc(C)cc(NC(=O)C2CCCN(c3nnc(C)c4c(C)n(-c5ccccc5)nc34)C2)c1 (centres undefined)
  A: 15µM*	B: .	C: 23µM*	D: 20%	E: 0%
CCOc1ccc(NC(=O)C2CCCN(c3nnc(C)c4c(C)n(-c5ccccc5)nc34)C2)cc1 (centres undefined)
  A: -15%	B: .	C: -11%	D: 22%	E: -3%
Cc1ccc(NC(=O)C2CCCN(c3nnc(C)c4c(C)n(-c5ccccc5)nc34)C2)c(Cl)c1 (centres undefined)
  A: 3.3µM*	B: .	C: 4.1µM*	D: 16%	E: 0%
CCCCc1nnc(NC(=O)CN2C(=O)NC3(CCCCC3)C2=O)s1
  A: 1%	B: 11%	C: -8%	D: -4%	E: 0%
Cc1ccc(NC(=O)C2CCN(c3nnc(C)c4c(C)n(-c5ccccc5)nc34)CC2)c(Cl)c1
  A: ?	B: .	C: 13µM*	D: -16%	E: 0%
NNC(=O)c1cc(-c2cccs2)nc2ccccc12
  A: ?	B: -27%	C: ?	D: 19%	E: 4%
O=C(N/N=C/c1ccsc1)c1cc(-c2ccncc2)nc2ccccc12
  A: 3.3µM*	B: -12%	C: 3.7µM*	D: 14%	E: 6%
O=C(O)c1ccc(/C=N/NC(=O)c2cc(-c3cccs3)nc3ccccc23)cc1
  A: 12µM*	B: -3%	C: ?	D: -20%	E: 3%
O=C(N/N=C/c1ccsc1)c1cc(-c2cccs2)nc2ccccc12
  A: 8.2µM*	B: ?	C: 10µM*	D: 24%	E: -2%
Cc1ccc(C)n1-c1nnc(N2CCCC(C(=O)NCc3ccc(F)cc3)C2)s1 (centres undefined)
  A: 8.2µM*	B: .	C: 18µM*	D: 8%	E: 3%
Cc1ccc(C)n1-c1nnc(N2CCCC(C(=O)NCc3ccc(Cl)cc3)C2)s1 (centres undefined)
  A: 9.2µM*	B: .	C: ?	D: ?	E: 8%

Entries listed so far with two or more sulfur atoms, in the order listed:
Abbreviations – A = TDP1 cell noCPT; B = uPA surface inh; C = DT40 TDP1 CPT; D = miR-21 reporter; E = TDP1 inh
COC(=O)[C@@H]1[C@H]2SC(C)(C)[C@H](C(=O)OC)N2C(=O)N1Cc1cc2ccccc2n1S(=O)(=O)c1ccccc1
  A: 13µM*	B: .	C: ?	D: .	E: .
O=C(N/N=C/c1ccsc1)c1cc(-c2cccs2)nc2ccccc12
  A: 8.2µM*	B: ?	C: 10µM*	D: 24%	E: -2%
